This passage reports CL/F results from ChEMBL document CHEMBL1151466, “Pharmacokinetics and efficacy of piperaquine and chloroquine in Melanesian children with uncomplicated malaria” (Antimicrob Agents Chemother, 2008).

The test system of the data set is Homo sapiens. As to the kind of experiment: Apparent clearance with respect to bioavailability in Paua New Guinean children with uncomplicated malaria at 10 mg/kg daily for 3 days. To be noted: in vivo, 72 h. In kind it is ADME, organism-based.

The term CL/F denotes the apparent clearance, not corrected for the fraction that reaches the circulation. For the molecule `CCN(CC)CCCC(C)Nc1ccnc2cc(Cl)ccc12` (stereo unspecified) [CHLOROQUINE], the CL/F was determined as 13 mL/min/kg.
